Experimental data as given in patent publication US8455439B2, “Antidotes for factor Xa inhibitors and methods of using the same in combination with blood coagulating agents” (Portola Pharmaceuticals, Inc., priority 2008, dated 2013).
“Also recorded” adds a separate entry of the source.

Assays:
Format in all cases: biochemical
procoagulant activity = experiment: Procoagulant activity of active-site mutant by clotting / fXa activity assays; details: in vitro clotting / fXa activity assays
[1] = tested on: human platelet poor plasma; experiment: Clotting prolongation assay, 96-well plate format (OD405 turbidity change, aPTT reagent)
Method: (§1) Two clotting assay formats were used to test the effects of factor Xa inhibitors and the antidote on clotting prolongation. In the first format, a 96-well plate was used to measure multiple samples at the same time. In the second assay format, aPTT was measured with a conventional coagulation instrument (MLA Electra 800 automatic coagulation timer).
In the 96-well plate format method, human platelet poor plasma or platelet rich plasma was prepared similarly as procedures in Example 2. 75-100 μL plasma was recalcified with CaCl2, incubated at 37° C. for 3 minutes and clot formation was initiated by adding tissue factor (Innovin, Dade Behring) or an aPTT reagent (Actin FS, Dade Behring). Change of OD405 was monitored continuously by a plate reader (Molecular Devices). Clotting time was defined as the time (second) when the half maximal value of absorbance (0D405 nm) change was reached. Factor Xa inhibitor and antidote, when present, were pre-incubated with plasma at room temperature for 20 minutes before initiation of the reaction.
In FIG. 18, the effect of r-Antidote to reverse the inhibitory effect of LMWH enoxaparin (Sanofi-Aventis) was tested by turbidity changes in human plasma. Enoxaparin (0-1.25 U/mL) was incubated at 22° C. for 20 min with or without 508 nM r-Antidote. Turbidity changes were measured according to procedures described in Example 3. 508 nM r-Antidote substantially corrected (>75%) the inhibitory effect of 0.3125-1.25 U/mL Enoxaparin.
Turbidity change of human platelet poor plasma (PPP) with an aPTT reagent (Actin FS) was monitored according to procedure described in Example 3.

[2] = tested on: thrombin generation in human plasma; experiment: Thrombin generation assay in platelet poor or platelet rich plasma; details: 680 nM antidote, varying betrixaban; FIG. 9
Method: PRP and PPP were prepared by spinning the anticoagulated blood at ˜100× gravity or 1000× gravity for 20 minutes, respectively, at room temperature. 75-100 microliter (uL) plasma was mixed with CaCl2 and Z-Gly-Gly-Arg-aminomethylcoumarin (Z-GGR-AMC, a thrombin fluorogenic substrate). Tissue factor (Innovin, Dade Behring) was added to initiate the generation of thrombin. For a typical experiment, the reaction mixture contained 15 millimolar (mM) Ca^2+, 100 micromolar (μM) Z-GGR-AMC, and 0.1 nanomolar (nM) tissue factor (TF) (Innovin). Thrombin formation was monitored continuously at 37° C. by a fluorometric plate reader (Molecular Devices) measuring the relative fluorescence units (RFU). Inhibitor and antidote, when present, were pre-incubated with plasma for 20 minutes at room temperature before initiation of thrombin generation.
The results of various experiments using this assay may be found in FIGS. 4, 6, and 9.
PRP and PPP were prepared by spinning the anticoagulated blood at ˜100× gravity or 1000× gravity for 20 minutes, respectively, at room temperature. […] Tissue factor (Innovin, Dade Behring) and CaCl2 were added to initiate the generation of thrombin. For a typical experiment, the reaction mixture contained 15 millimolar (mM) Ca^2+, 100 micromolar (μM) Z-GGR-AMC, and 0.1 nanomolar (nM) tissue factor (TF) (Innovin). Thrombin formation was monitored continuously at 37° C. by a fluorometric plate reader (Molecular Devices) measuring the relative fluorescence units (RFU). When present, the inhibitor and the antidote were pre-incubated with plasma for 15 minutes at room temperature before initiation of thrombin generation. Recombinant VIIa (rVIIa, Novoseven), when present, was added before addition of TF to initiate the reaction.

pooled human plasma = experiment: aPTT clotting assay, MLA Electra 800 automatic coagulation timer; details: FIG. 13
Method: as §1
In FIG. 19, the effect of r-Antidote on reversal of anticoagulation by a low molecular weight heparin (LMWH enoxaparin, Sanofi-Aventis) was tested in a human plasma clotting assay. The effect of 1 antiXa Unit/mL LMWH on aPTT prolongation of plasma and the reversal of inhibitory effect was measured by a MLA Electra 800 Automatic coagulation timer. 100 μL pooled citrate anticoagulated human plasma was mixed with enoxaparin and different concentrations of antidote. Prior to measurement of clotting time, aPTT reagent (Actin FS, Dade Behring) and CaCl2 were added per manufacturer's instructions.

purified human thrombin = target: T1, purified human thrombin (Homo sapiens, UniProt P00734); experiment: Thrombin chromogenic assay (S2288) with argatroban; details: antidote up to 538 nM; thrombin 5 nM; argatroban 50 nM; FIG. 12
T1 construct: catalyzes the conversion of prothrombin to thrombin
Method: The effect of the antidote des-Gla anhydro-fXa on thrombin activity toward a chromogenic substrate S2288 (200 μM) was measured similarly as before with or without Argatroban, a specific small molecule Ha inhibitor.
After incubation at room temperature for 20 min, an amidolytic substrate S2288 (200 uM) was added to the mixture and the rate of p-nitroanilide substrate cleavage was monitored by absorbance at 405 nm.

## fX-S395A: recombinant active-site mutant said to have essentially no procoagulant activity
Procoagulant activity
  procoagulant activity: essentially has no procoagulant activity

## fX: human factor X (Hematologic Technologies)
[1]; 170 nM fX, plasma with or without 125 nM betrixaban, FIG. 26
  reduction of clotting time: ~20%

B1: pd-Antidote: des-Gla anhydro fXa derivative having the amino acid residues of SEQ ID NO. 10 (protein)
chain: KDGDQCETSPCQNQGKCKDGLGEYTCTCLEGFEGKNCELFTRKLCSLDNGDCDQFCHEEQNSVVCSCARGYTLADNGKACIPTGPYPCGKQTLERIVGGQECKDGECPWQALLINEENEGFCGGTILSEFYILTAAHCLYQAKRFKVRVGDRNTEQEEGGEAVHEVEVVIKHNRFTKETYDFDIAVLRLKTPITFRMNVAPACLPERDWAESTLMTQKTGIVSGFGRTHEKGRQSTRLKMLEVPYVDRNSCKLSSSFIITQNMFCAGYDTKQEDACQGDAGGPHVTRFKDTYFVTGIVSWGEGCARKGKYGIYTKVTAFLKWIDRSMKTRGLPKAKSHAPEVITSSPLK
modifications: anhydro active-site serine
[2]
  reversal of the anticoagulant activity of betrixaban: complete reversion; also recorded: substantially complete restoration of fXa activity
[1]; 563 nM antidote, enoxaparin 0.3125-1.25 U/mL, FIG. 11
  effect on anticoagulant activity of enoxaparin: capable of reversing; also recorded: significantly neutralized
Pooled human plasma; antidote alone, highest concentration tested 2576 nM
  effect on aPTT of control plasma: no effect on aPTT
Pooled human plasma; with 400 nM betrixaban, read-out: EC50 of the antidote
  EC50: ~656 nM
Purified human thrombin
  effect on thrombin activity and its inhibition by argatroban: did not exhibit significant antidote activity; also recorded: does not detectably affect
